According to ChEMBL document CHEMBL1128693, “Novel cytotoxic 3'-(tert-butyl) 3'-dephenyl analogs of paclitaxel and docetaxel” (J Med Chem, 1995):

Test: Ratio of ED50 in microtubule assembly in presence of paclitaxel to only compound
Format: functional
Method in brief: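 Bovine brain tubulin purified by three temperature-dependent assembly-disassembly cycles plus phosphocellulose-biogel P-10 chromatography, cleared at 27000g for 10 min. Varied compound levels incubated with 10 μM tubulin and 0.5 mM GTP in PEM buffer (0.1 M Pipes pH 6.9, 1 mM MgSO₄, 1 mM EGTA), 37 °C, 15 min. Spun at 40000g for 4 min; supernatant protein by Bradford. ED50 = concentration giving 50% protein retained in supernatant. Ratio against paclitaxel ED50.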
For `CCCCOC(=O)N[C@H]([C@@H](O)C(=O)O[C@H]1C[C@@]2(O)[C@@H](OC(=O)c3ccccc3)[C@@H]3[C@]4(OC(C)=O)CO[C@@H]4C[C@H](O)[C@@]3(C)C(=O)[C@H](O)C(=C1C)C2(C)C)C(C)(C)C`, the Ratio was 0.86.
Molecule `CC(=O)O[C@@]12CO[C@@H]1C[C@H](O)[C@@]1(C)C(=O)[C@H](O)C3=C(C)[C@@H](OC(=O)[C@H](O)[C@@H](NC(=O)OCC(C)C)C(C)(C)C)C[C@@](O)([C@@H](OC(=O)c4ccccc4)[C@H]21)C3(C)C` has a Ratio of 0.54.
Molecule `CC(=O)O[C@@]12CO[C@@H]1C[C@H](O)[C@@]1(C)C(=O)[C@H](O)C3=C(C)[C@@H](OC(=O)[C@H](O)[C@@H](NC(=O)OC(C)(C)C)C(C)(C)C)C[C@@](O)([C@@H](OC(=O)c4ccccc4)[C@H]21)C3(C)C` has a Ratio of 0.38.
Work on `CCC(C)(C)OC(=O)N[C@H]([C@@H](O)C(=O)O[C@H]1C[C@@]2(O)[C@@H](OC(=O)c3ccccc3)[C@@H]3[C@]4(OC(C)=O)CO[C@@H]4C[C@H](O)[C@@]3(C)C(=O)[C@H](O)C(=C1C)C2(C)C)C(C)(C)C` yielded a Ratio of 0.45.
Molecule `CC(=O)O[C@@]12CO[C@@H]1C[C@H](O)[C@@]1(C)C(=O)[C@H](O)C3=C(C)[C@@H](OC(=O)[C@H](O)[C@@H](NC(=O)CC(C)(C)C)C(C)(C)C)C[C@@](O)([C@@H](OC(=O)c4ccccc4)[C@H]21)C3(C)C` has a Ratio of 0.48.
In the case of `CC(=O)O[C@@]12CO[C@@H]1C[C@H](O)[C@@]1(C)C(=O)[C@H](O)C3=C(C)[C@@H](OC(=O)[C@H](O)[C@@H](NC(=O)Nc4ccccc4)C(C)(C)C)C[C@@](O)([C@@H](OC(=O)c4ccccc4)[C@H]21)C3(C)C`, the Ratio is reported as 0.32.
`CC(=O)O[C@@]12CO[C@@H]1C[C@H](O)[C@@]1(C)C(=O)[C@H](O)C3=C(C)[C@@H](OC(=O)[C@H](O)[C@@H](NC(=O)NC(C)(C)C)C(C)(C)C)C[C@@](O)([C@@H](OC(=O)c4ccccc4)[C@H]21)C3(C)C` gave a Ratio of 0.6.
Molecule `CC(=O)O[C@@]12CO[C@@H]1C[C@H](O)[C@@]1(C)C(=O)[C@H](O)C3=C(C)[C@@H](OC(=O)[C@H](O)[C@@H](NC(=O)c4ccccc4)C(C)(C)C)C[C@@](O)([C@@H](OC(=O)c4ccccc4)[C@H]21)C3(C)C` has a Ratio of 1.8.
